Assays:
PON1 in plasma = experiment: in vitro; settings: human
PON1 = experiment: in vitro; settings: female, human, pH 7.4, Km(app)

CCOP(=O)(OCC)Oc1nc(Cl)c(Cl)cc1Cl [CPO, chlorpyrifos-oxon]
Km (PON1 in plasma; both, pH 7.4, Km (mean)): 290 µM | Km (PON1 in plasma; female, pH 7.4, Km(app)): 226 µM | Km (PON1): 201 µM
